Assays:
Type in all cases: cell-based
human OX2R wild type = human OX2R wild type (Homo sapiens, UniProt O43614); experiment: β-arrestin PathHunter assay, OX2R WT; design: expressed in transfected cells; host or cells: CHO-K1 stably expressing EA β-arrestin2; conditions: β-arrestin recruitment
OX2R N324A = biological target: T1, OX2R N324A (Homo sapiens, UniProt O43614, N324A); experiment: IP accumulation assay, OX2R N324A; conditions: pEC50 ± SEM
T1 construct: FLAG; expressed in transfected cells; host or cells: HEK293

Amino acid sequences for entries named in this document (tags omitted).
UniProt O43614, whole entry: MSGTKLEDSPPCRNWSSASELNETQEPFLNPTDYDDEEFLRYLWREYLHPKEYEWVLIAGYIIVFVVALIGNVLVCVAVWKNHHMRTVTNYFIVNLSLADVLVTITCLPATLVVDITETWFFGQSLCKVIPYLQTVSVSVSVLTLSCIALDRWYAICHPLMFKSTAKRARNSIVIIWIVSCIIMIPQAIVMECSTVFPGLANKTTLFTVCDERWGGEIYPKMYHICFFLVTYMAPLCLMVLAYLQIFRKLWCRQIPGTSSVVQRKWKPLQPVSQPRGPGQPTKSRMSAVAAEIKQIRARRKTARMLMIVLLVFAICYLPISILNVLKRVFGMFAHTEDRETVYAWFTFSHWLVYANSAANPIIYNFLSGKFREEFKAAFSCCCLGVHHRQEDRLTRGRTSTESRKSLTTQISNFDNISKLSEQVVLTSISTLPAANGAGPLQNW
UniProt O43614, whole entry N324A: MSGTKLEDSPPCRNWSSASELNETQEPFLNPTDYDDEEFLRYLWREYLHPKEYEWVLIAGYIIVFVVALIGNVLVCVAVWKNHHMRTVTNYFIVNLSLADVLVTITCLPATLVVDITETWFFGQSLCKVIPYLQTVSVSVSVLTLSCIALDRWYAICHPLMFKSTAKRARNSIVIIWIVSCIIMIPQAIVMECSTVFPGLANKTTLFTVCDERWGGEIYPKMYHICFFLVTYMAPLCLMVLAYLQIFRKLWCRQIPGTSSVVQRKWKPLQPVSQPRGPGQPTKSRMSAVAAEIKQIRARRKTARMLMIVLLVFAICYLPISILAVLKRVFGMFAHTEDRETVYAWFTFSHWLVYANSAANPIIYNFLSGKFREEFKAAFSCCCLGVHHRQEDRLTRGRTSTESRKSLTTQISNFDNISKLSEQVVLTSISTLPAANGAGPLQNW
UniProt O43614, whole entry T111A: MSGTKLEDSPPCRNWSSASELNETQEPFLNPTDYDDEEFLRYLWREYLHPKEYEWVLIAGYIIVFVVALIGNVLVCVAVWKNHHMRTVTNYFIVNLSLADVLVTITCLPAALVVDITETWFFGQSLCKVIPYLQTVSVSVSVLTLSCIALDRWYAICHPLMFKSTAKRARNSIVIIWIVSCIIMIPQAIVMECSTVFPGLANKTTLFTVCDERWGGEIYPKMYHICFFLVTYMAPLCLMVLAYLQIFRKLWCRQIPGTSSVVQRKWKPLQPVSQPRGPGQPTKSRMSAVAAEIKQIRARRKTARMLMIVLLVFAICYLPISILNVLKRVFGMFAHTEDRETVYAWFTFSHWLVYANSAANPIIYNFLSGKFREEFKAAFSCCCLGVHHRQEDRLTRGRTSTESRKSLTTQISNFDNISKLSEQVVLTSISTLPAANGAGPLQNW

OX2R T111A = biological target: T2, OX2R T111A (Homo sapiens, UniProt O43614, T111A); experiment: IP accumulation assay, OX2R T111A; conditions: pEC50 ± SEM
T2 construct: FLAG; expressed in transfected cells; host or cells: HEK293

Row | Compound | EC50 (human OX2R wild type) | pEC50 (OX2R N324A) | pEC50 (OX2R T111A)
1 | COC(=O)N1CCC[C@H](NS(C)(=O)=O)[C@@H]1CO[C@H]1CC[C@@H](c2ccccc2)CC1 [TAK-925, methyl (2R,3S)−3-[(methylsulfonyl)amino]−2-{[(cis−4-phenylcyclohexyl)oxy]methyl}piperidine-1-carboxylate] | 120 nM | – | –
2 | orexin B | – | not saturating | not saturating
